Test results as given in patent US8476225B2, “Antiviral compounds” (Gilead Sciences, Inc., priority 2009, dated 2013).

Sequences of proteins named here, by UniProt entry; tags and fusion partners are left off. Residues count along the entry.
UniProt P27958, 1027-1208: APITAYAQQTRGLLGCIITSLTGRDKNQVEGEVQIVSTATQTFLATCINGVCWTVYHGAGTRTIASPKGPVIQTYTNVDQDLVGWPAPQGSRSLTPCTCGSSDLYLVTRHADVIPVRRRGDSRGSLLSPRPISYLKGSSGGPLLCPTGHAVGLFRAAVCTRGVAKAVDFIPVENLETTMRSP

Each compound was assayed against HCV NS3 protease (Hepatitis C virus genotype 1a (isolate H77) (HCV), UniProt P27958) (assay: biochemical).
For `C=C[C@@H]1C[C@]1(NC(=O)[C@@H]1CN(S(=O)(=O)c2cccc(Br)c2)CN1C(=O)[C@@H](NC(=O)OC1CCCC1)C(C)(C)C)C(=O)NS(=O)(=O)C1CC1` [Example 15], the IC50 was 32 nM.
`C=C[C@@H]1C[C@]1(NC(=O)[C@@H]1CN(C(=O)Cc2ccccc2)CN1C(=O)[C@@H](NC(=O)OC1CCCC1)C(C)(C)C)C(=O)NS(=O)(=O)C1CC1` [Example 2] was tested, and the IC50 was 490 nM.
Work on `C=C[C@@H]1C[C@]1(NC(=O)[C@@H]1CN(c2cc(OC)nc(Cl)n2)CN1C(=O)[C@@H](NC(=O)OC1CCCC1)C(C)(C)C)C(=O)NS(=O)(=O)C1CC1` [Example 55] yielded an IC50 of 1090 nM.
Work on `C=C[C@@H]1C[C@]1(NC(=O)[C@@H]1CN(S(=O)(=O)c2ccc(OC)cc2)CN1C(=O)[C@@H](NC(=O)OC1CCCC1)C(C)(C)C)C(=O)NS(=O)(=O)C1CC1` [Example 22] yielded an IC50 of 2 nM.
For `C=C[C@@H]1C[C@]1(NC(=O)[C@@H]1CN(c2ccccc2)CN1C(=O)[C@@H](NC(=O)OC1CCCC1)C(C)(C)C)C(=O)NS(=O)(=O)C1CC1` [Example 28], the IC50 was 19 nM.
Compound `C=C[C@@H]1C[C@]1(NC(=O)[C@@H]1CN(S(=O)(=O)c2cccc(F)c2)CN1C(=O)[C@@H](NC(=O)OC1CCCC1)C(C)(C)C)C(=O)NS(=O)(=O)C1CC1` [Example 9] has an IC50 of 14 nM.
For `C=C[C@@H]1C[C@]1(NC(=O)[C@@H]1CN(c2ccc(-c3ccc(F)cc3)cc2)CN1C(=O)[C@@H](NC(=O)OC1CCCC1)C(C)(C)C)C(=O)NS(=O)(=O)C1CC1` [Example 43], the IC50 was 45 nM.
With `C=C[C@@H]1C[C@]1(NC(=O)[C@@H]1CN(C(=O)Nc2ccccc2)CN1C(=O)[C@@H](NC(=O)OC1CCCC1)C(C)(C)C)C(=O)NS(=O)(=O)C1CC1` [Example 26] the IC50 was 640 nM.
`C=C[C@@H]1C[C@]1(NC(=O)[C@@H]1CN(c2ccc(-c3ccccc3OC)cc2)CN1C(=O)[C@@H](NC(=O)OC1CCCC1)C(C)(C)C)C(=O)NS(=O)(=O)C1CC1` [Example 39] was tested, and the IC50 was 21 nM.
`C=C[C@@H]1C[C@]1(NC(=O)[C@@H]1CN(S(=O)(=O)c2ccc(F)cc2)CN1C(=O)[C@@H](NC(=O)OC1CCCC1)C(C)(C)C)C(=O)NS(=O)(=O)C1CC1` [Example 10] gave an IC50 of 4 nM.
For `C=C[C@@H]1C[C@]1(NC(=O)[C@@H]1CN(c2ccc(-c3ccccc3C)cc2)CN1C(=O)[C@@H](NC(=O)OC1CCCC1)C(C)(C)C)C(=O)NS(=O)(=O)C1CC1` [Example 41], the IC50 was 39 nM.
`C=C[C@@H]1C[C@]1(NC(=O)[C@@H]1CN(c2ccc(-c3ccccc3)cc2)CN1C(=O)[C@@H](NC(=O)OC(C)(C)C(F)(F)F)C(C)(C)C)C(=O)NS(=O)(=O)C1CC1` [Example 59] showed an IC50 of 2 nM.
In the case of `C=C[C@@H]1C[C@]1(NC(=O)[C@@H]1CN(S(=O)(=O)Cc2ccccc2)CN1C(=O)[C@@H](NC(=O)OC1CCCC1)C(C)(C)C)C(=O)NS(=O)(=O)C1CC1` [Example 25], the IC50 is reported as 14 nM.
`C=C[C@@H]1C[C@]1(NC(=O)[C@@H]1CN(Cc2ccccc2)CN1C(=O)[C@@H](NC(=O)OC1CCCC1)C(C)(C)C)C(=O)NS(=O)(=O)C1CC1` [Example 1] was tested, and the IC50 was 195 nM.
`C=C[C@@H]1C[C@]1(NC(=O)[C@@H]1CN(c2cc(N3CCCCC3)nc(OC)n2)CN1C(=O)[C@@H](NC(=O)OC1CCCC1)C(C)(C)C)C(=O)NS(=O)(=O)C1CC1` [Example 63] was tested, and the IC50 was 1430 nM.
`C=C[C@@H]1C[C@]1(NC(=O)[C@@H]1CN(S(=O)(=O)Nc2ccccc2)CN1C(=O)[C@@H](NC(=O)OC1CCCC1)C(C)(C)C)C(=O)NS(=O)(=O)C1CC1` [Example 27] showed an IC50 of 61 nM.
`C=C[C@@H]1C[C@]1(NC(=O)[C@@H]1CN(S(=O)(=O)c2ccccc2F)CN1C(=O)[C@@H](NC(=O)OC1CCCC1)C(C)(C)C)C(=O)NS(=O)(=O)C1CC1` [Example 8] was tested, and the IC50 was 11 nM.
In the case of `C=C[C@@H]1C[C@]1(NC(=O)[C@@H]1CN(c2ccc3ccccc3c2)CN1C(=O)[C@@H](NC(=O)OC1CCCC1)C(C)(C)C)C(=O)NS(=O)(=O)C1CC1` [Example 37], the IC50 is reported as 12 nM.
`C=C[C@@H]1C[C@]1(NC(=O)[C@@H]1CN(c2cc(Nc3ccccc3)nc(OC)n2)CN1C(=O)[C@@H](NC(=O)OC1CCCC1)C(C)(C)C)C(=O)NS(=O)(=O)C1CC1` [Example 66] was tested, and the IC50 was 610 nM.
`CCC[C@H](NC(=O)[C@@H]1CN(S(=O)(=O)c2ccc(Br)cc2)CN1C(=O)[C@@H](NC(=O)OC1CCCC1)C(C)(C)C)C(=O)C(=O)NC1CC1` [Example 53] was tested, and the IC50 was 500 nM.
Work on `C=C[C@@H]1C[C@]1(NC(=O)[C@@H]1CN(c2ccc(-c3cncnc3)cc2)CN1C(=O)[C@@H](NC(=O)OC1CCCC1)C(C)(C)C)C(=O)NS(=O)(=O)C1CC1` [Example 45] yielded an IC50 of 45000 nM.
`C=C[C@@H]1C[C@]1(NC(=O)[C@@H]1CN(S(=O)(=O)c2cccc3ccccc23)CN1C(=O)[C@@H](NC(=O)OC1CCCC1)C(C)(C)C)C(=O)NS(=O)(=O)C1CC1` [Example 12] gave an IC50 of 170 nM.
`C=C[C@@H]1C[C@]1(NC(=O)[C@@H]1CN(c2cc(Cl)nc(N3CCCCC3)n2)CN1C(=O)[C@@H](NC(=O)OC1CCCC1)C(C)(C)C)C(=O)NS(=O)(=O)C1CC1` [Example 65] gave an IC50 of 950 nM.
`C=C[C@@H]1C[C@]1(NC(=O)[C@@H]1CN(c2ccc(-n3cccn3)cc2)CN1C(=O)[C@@H](NC(=O)OC1CCCC1)C(C)(C)C)C(=O)NS(=O)(=O)C1CC1` [Example 33] gave an IC50 of 9 nM.
Compound `C=C[C@@H]1C[C@]1(NC(=O)[C@@H]1CN(S(=O)(=O)c2ccsc2)CN1C(=O)[C@@H](NC(=O)OC1CCCC1)C(C)(C)C)C(=O)NS(=O)(=O)C1CC1` [Example 24] has an IC50 of 3 nM.
In the case of `C=C[C@@H]1C[C@]1(NC(=O)[C@@H]1CN(c2ccc(-c3ccccc3F)cc2)CN1C(=O)[C@@H](NC(=O)OC1CCCC1)C(C)(C)C)C(=O)NS(=O)(=O)C1CC1` [Example 40], the IC50 is reported as 34 nM.
In the case of `C=C[C@@H]1C[C@]1(NC(=O)[C@@H]1CN(c2cccc(-c3ccccc3)c2)CN1C(=O)[C@@H](NC(=O)OC1CCCC1)C(C)(C)C)C(=O)NS(=O)(=O)C1CC1` [Example 30], the IC50 is reported as 13 nM.
`C=C[C@@H]1C[C@]1(NC(=O)[C@@H]1CN(c2cc(-c3ccccc3)nc(SC)n2)CN1C(=O)[C@@H](NC(=O)OC1CCCC1)C(C)(C)C)C(=O)NS(=O)(=O)C1CC1` [Example 56] was tested, and the IC50 was 3400 nM.
`C=C[C@@H]1C[C@]1(NC(=O)[C@@H]1CN(c2ccc(-c3ccccc3)cc2)CN1C(=O)[C@@H](NC(=O)OC1CCCC1)C(C)(C)C)C(=O)NS(=O)(=O)C1CC1` [Example 34] was tested, and the IC50 was 2 nM.
`C=C[C@@H]1C[C@]1(NC(=O)[C@@H]1CN(C(=O)OCc2ccccc2)CN1C(=O)[C@@H](NC(=O)OC1CCCC1)C(C)(C)C)C(=O)NS(=O)(=O)C1CC1` [Example 3] was tested, and the IC50 was 57 nM.
Work on `C=C[C@@H]1C[C@]1(NC(=O)[C@@H]1CN(c2ccc(-c3ccsc3)cc2)CN1C(=O)[C@@H](NC(=O)OC1CCCC1)C(C)(C)C)C(=O)NS(=O)(=O)C1CC1` [Example 44] yielded an IC50 of 40 nM.
`C=C[C@@H]1C[C@]1(NC(=O)[C@@H]1CN(c2ccc(C(C)C)cc2)CN1C(=O)[C@@H](NC(=O)OC1CCCC1)C(C)(C)C)C(=O)NS(=O)(=O)C1CC1` [Example 36] gave an IC50 of 16 nM.
